This is an account of results in patent US20240108745A1, “BIOACTIVE SUBSTANCE CONJUGATE, PREPARATION METHOD THEREFOR AND USE THEREOF” (MEDILINK THERAPEUTICS (SUZHOU) CO., LTD., priority 2021, published 2024).

As a reminder, the EC50 is the concentration needed to bring the measured effect to its halfway point. The low end stands for a more potent agent, the high end for a less potent agent.

For experiment [1], the target named is B7H3 on tumor cells (MCF-7, A549, PC-3) (human) (UniProt Q5ZPR3). The experiment is described as follows: flow cytometry on MCF-7 tumor cells.
Experiment [2] shares this target. The experiment is described as follows: flow cytometry on MCF-7 tumor cells; reference B7H3-C1. On the technique in general: Flow cytometry measures light scatter and fluorescence of single cells or particles in a stream.
Experiment [3] has the same target. The experiment is described as follows: flow cytometry on A549 tumor cells; reference B7H3-C1.
The target is the same in experiment [4]. The experiment is described as follows: flow cytometry on A549 tumor cells.
For experiment [5] the target is unchanged. The experiment is described as follows: flow cytometry on PC-3 tumor cells.
For experiment [6] the target is unchanged. The experiment is described as follows: flow cytometry on MCF-7 tumor cells; reference control antibody 2 (B7H3-C2).
Experiment [7] shares this target. The experiment is described as follows: flow cytometry on PC-3 tumor cells; reference B7H3-C2.
Experiment [8] has the same target. The experiment is described as follows: flow cytometry on PC-3 tumor cells; reference B7H3-C1.

B1: anti-B7H3 antibody 1D1-01 (antibody, human IgG1, kappa, V domains shown)
VH: EGQLVESGGGLVQPGGSLRLSCAASGFTISSYWMNWVRQAPGKGLEWVANIKQDGSEKYYVDSVQGRFTISRDNAKNSLYLQMNSLRAEDTAVYYCARRMYSSGWYWGAFDMWGQGTMVTVSS
VL: EIVLTQSPGTLSLSPGERATLSCRASQSVSSIYLAWNQQKPGQAPRLLIYGTFKRATGIPDRFSGSGSGTDFTLTISSLEPEDFAVYYCQQYDTSSITFGQGTRLEIKR
On to B1, for which the EC50 in experiment [1] was 0.524 nM; in experiment [4], 0.322 nM. In addition, the Maximum MFI was 94500 in experiment [1] and 11300 in experiment [4]. Also, the maximum fluorescence signal value, higher than that of B7H3-C1 in experiment [2] turned out to be 12%; in experiment [3] it was 36%.

B2: anti-B7H3 antibody 2E3-02 (antibody, human IgG1, kappa, V domains shown)
VH: EVQLLESGGGLVQPGGSLRLSCAASGFTFSSYAMNWVRQAPGKGLEWVSGISGSGGSTYYADSVQGRFTISRDNSKNTLYLQMNSLRAEDTAVYYCAKARSGYDYFFDYWGQGTLVTVSS
VL: EIVLTQSPGTLSLSPGERATLSCRASQRISSSFLAWYQQKPGQAPSLLIYGASSRATGIPDRFSGSGSGTDFTLTISSLEPEDFAVFYCQQYSNSPLTFGGGTKVEIKR
With B2, the EC50 in experiment [1] is 0.398 nM; in experiment [5], 0.063 nM; in experiment [4], 0.15 nM. The Maximum MFI in experiment [1] worked out at 77700; in experiment [5], 9730; in experiment [4] it was 84800. Besides, the maximum fluorescence signal value, higher than that of B7H3-C1 in experiment [2] is 23%; in experiment [3] it was 77%. Moreover, the maximum fluorescence signal value, times that of control antibody 2 in experiment [6] is 2.78 times. This molecule gave a maximum fluorescence signal value, times that of B7H3-C2 in experiment [7] of 4.48 times. In addition, the maximum fluorescence signal value, times that of B7H3-C1 in experiment [8] stood at 1.51 times.
